Experimental findings from patent US9320281B2, “Readied in situ glyphosate herbicide soluble powder composition and its preparation process” (ALLVET QUIMICA INDUSTRIAL LTDA., priority 2011, dated 2016) are described below.

In the series the test system is rats. As to the kind of experiment: Acute oral toxicology LD50 in rats. In kind it is in vivo.

With Coco amide propyl amine oxide, the “Acute oral toxicology LD50” value is >2000 mg/kg.
